{
  "sequences": {"note": "Amino acid sequences for entries named in this document (tags omitted).", "UniProt P11473, whole entry": "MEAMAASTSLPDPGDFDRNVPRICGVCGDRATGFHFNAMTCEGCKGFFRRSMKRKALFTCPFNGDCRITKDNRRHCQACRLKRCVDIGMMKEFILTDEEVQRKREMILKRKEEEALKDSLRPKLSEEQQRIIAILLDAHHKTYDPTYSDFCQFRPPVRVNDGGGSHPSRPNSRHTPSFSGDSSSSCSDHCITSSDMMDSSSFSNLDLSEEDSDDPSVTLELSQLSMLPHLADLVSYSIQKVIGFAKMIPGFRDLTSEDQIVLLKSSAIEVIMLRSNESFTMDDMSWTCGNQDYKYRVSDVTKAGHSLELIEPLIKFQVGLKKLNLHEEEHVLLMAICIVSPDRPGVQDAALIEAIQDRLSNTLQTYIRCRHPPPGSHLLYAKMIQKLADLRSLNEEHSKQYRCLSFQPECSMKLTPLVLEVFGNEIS"},
  "source": "PubChem BioAssay AID504847",
  "about": "(National Center for Advancing Translational Sciences (NCATS), 2011)",
  "note": "This is a selection; strong and weak results do not stand in their true shares. Records with an inconclusive call do not appear. Activity calls are given as the source filed them. Calls come from the whole dose curve; as a rule, active = well fitted inhibition curve with a large enough effect; inconclusive = small, poorly fitted or top-dose-only effect, or another doubt; inactive = no such curve, though single readings can be large or run the other way. % is set by controls: 0 for no effect and ±100 for the full control effect.",
  "data": [
    {"biological_target": "Vitamin D3 receptor (Homo sapiens) (UniProt P11473)", "test": "Inhibitors of the vitamin D receptor (VDR): qHTS", "conditions": "VDR-SRC2-3 peptide fluorescence polarization, 2 h; stronger effect = lower value", "values": [
      {"compound": "CCC(=O)N(c1ccccc1)C1(COC)CCN(CCn2nnn(CC)c2=O)CC1", "max response, negative = inhibition": "inactive: -18.8%"}
    ]}
  ]
}
